Literature values in paper PMC5647227 (ACS chemical neuroscience, 2017).

Amino acid sequences for entries named in this document (tags omitted).
UniProt P25103, whole entry: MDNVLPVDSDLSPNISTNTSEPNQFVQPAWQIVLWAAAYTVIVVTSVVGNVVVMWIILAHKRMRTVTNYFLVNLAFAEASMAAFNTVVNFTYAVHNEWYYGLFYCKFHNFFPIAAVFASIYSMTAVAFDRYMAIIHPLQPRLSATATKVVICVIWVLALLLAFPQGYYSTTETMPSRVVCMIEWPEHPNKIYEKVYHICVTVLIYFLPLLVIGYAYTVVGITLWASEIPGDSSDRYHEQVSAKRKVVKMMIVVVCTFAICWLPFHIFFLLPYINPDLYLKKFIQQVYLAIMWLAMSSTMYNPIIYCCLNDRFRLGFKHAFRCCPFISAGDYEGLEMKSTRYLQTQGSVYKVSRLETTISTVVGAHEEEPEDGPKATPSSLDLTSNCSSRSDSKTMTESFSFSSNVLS

Biological target: hNK1 receptors (Homo sapiens, UniProt P25103)
Settings: antagonism of substance P, Schild's equation; ref Ballet et al.[1]; cited from earlier work

In the case of “H-Dmt-D-Arg-Aba-Gly-NMe-3′,5′-(CF3)2-Bn [Compound 3]”, the “NK1R pA2” value is listed as 7.80.
